Test results as given in BindingDB's records for PubMed 9400006 (Emory University, 1997).
Several values for one entry are separate records, joined by “and”; a condition that tells them apart may be missing. Equal values may be shown once. Blank lines part the entries; values can stand above or below the compound they belong to.

The chains behind the UniProt entries cited, without tags or fusion partners.
UniProt P31652, whole entry: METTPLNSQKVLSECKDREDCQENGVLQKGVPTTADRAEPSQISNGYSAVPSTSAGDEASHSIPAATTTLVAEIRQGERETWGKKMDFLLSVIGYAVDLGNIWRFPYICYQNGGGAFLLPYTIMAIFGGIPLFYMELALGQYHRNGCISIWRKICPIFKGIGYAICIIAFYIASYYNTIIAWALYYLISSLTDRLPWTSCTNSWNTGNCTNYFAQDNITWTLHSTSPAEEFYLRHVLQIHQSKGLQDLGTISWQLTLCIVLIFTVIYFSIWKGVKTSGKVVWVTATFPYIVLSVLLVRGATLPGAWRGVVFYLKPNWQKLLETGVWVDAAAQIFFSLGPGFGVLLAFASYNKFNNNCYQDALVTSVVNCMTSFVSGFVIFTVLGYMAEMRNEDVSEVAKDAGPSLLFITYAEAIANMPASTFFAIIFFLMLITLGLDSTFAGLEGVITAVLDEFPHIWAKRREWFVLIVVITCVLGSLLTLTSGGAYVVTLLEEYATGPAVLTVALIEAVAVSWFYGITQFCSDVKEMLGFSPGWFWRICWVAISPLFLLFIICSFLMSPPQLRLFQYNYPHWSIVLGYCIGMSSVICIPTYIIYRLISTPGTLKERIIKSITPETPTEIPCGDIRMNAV
UniProt P19327, whole entry: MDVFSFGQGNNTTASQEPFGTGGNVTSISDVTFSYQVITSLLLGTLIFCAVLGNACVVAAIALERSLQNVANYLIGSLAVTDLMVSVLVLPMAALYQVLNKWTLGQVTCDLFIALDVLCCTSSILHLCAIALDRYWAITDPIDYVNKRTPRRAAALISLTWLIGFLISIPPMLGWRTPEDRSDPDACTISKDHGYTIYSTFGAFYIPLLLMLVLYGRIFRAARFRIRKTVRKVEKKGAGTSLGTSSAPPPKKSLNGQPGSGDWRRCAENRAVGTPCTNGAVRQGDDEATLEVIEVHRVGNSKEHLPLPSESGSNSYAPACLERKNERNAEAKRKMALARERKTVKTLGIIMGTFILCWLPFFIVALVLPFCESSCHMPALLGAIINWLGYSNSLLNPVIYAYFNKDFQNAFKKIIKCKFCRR
UniProt P08913, whole entry: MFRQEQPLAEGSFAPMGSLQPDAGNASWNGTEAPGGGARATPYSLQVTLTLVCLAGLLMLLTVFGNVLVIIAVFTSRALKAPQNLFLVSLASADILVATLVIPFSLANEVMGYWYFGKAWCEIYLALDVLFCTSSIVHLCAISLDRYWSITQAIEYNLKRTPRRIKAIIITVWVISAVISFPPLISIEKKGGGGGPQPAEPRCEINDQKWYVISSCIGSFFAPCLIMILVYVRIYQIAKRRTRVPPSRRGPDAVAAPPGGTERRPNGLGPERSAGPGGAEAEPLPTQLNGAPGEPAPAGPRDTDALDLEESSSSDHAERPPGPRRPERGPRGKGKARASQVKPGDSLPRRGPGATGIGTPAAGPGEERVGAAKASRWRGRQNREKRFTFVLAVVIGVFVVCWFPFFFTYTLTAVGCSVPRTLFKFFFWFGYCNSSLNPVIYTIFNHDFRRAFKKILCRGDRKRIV
UniProt P23975, whole entry: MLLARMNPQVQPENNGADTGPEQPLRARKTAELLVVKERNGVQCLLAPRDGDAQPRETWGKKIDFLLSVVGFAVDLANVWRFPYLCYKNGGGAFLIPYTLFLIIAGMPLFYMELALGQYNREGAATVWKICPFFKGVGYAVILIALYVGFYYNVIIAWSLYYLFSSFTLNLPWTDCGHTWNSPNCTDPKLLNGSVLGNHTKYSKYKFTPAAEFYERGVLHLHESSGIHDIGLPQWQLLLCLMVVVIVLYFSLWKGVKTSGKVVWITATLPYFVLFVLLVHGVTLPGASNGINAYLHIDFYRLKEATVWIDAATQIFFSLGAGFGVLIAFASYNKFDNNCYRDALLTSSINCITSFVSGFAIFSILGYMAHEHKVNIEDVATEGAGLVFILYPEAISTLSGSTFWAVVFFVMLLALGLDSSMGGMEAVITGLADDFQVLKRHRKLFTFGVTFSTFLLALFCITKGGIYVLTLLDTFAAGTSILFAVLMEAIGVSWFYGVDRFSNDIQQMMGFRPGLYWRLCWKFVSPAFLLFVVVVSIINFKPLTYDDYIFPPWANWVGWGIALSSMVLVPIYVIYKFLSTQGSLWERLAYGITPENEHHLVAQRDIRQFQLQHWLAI

Experiments:
[1] = target: Sodium-dependent serotonin transporter (Rattus norvegicus, UniProt P31652)
[2] = target: Norepinephrine transporter (Rattus norvegicus, UniProt Q9JIA2)
[3] = target: 5-hydroxytryptamine receptor 1A (Rattus norvegicus, UniProt P19327)
[4] = target: Alpha-2A adrenergic receptor (Homo sapiens, UniProt P08913)
[5] = target: Sodium-dependent noradrenaline transporter (Homo sapiens, UniProt P23975)

Compound: N[C@H]1CC[C@@H](c2ccc(Cl)c(Cl)c2)c2ccccc21
Ki [1]: 4.6 nM

Compound: COc1ccc(C(CN(C)C)C2(O)CCCCC2)cc1 (configuration not stated) [NSC_62923]
Ki [2]: 1070 nM

Compound: NCCc1c[nH]c2ccc(O)cc12 [[3H]-5-HT]
Ki [3]: 0.12 nM

Compound: CCc1nn(CCCN2CCN(c3cccc(Cl)c3)CC2)c(=O)n1CCOc1ccccc1 [2-{3-[4-(3-chlorophenyl)piperazin-1-yl]propyl}-5-ethyl-4-(2-phenoxyethyl)-2,4-dihydro-3H-1,2,4-triazol-3-one]
Ki [4]: 84 nM

Ki [5]: 20 nM and 142 nM
Compound: CN(C)CCCN1c2ccccc2CCc2ccccc21

Ki [1]: 60 nM
Compound: CNCCC=C1c2ccccc2CCc2ccccc21 [NORTRIPTYLINE]

Compound: CN(C)CC(c1ccc(O)cc1)C1(O)CCCCC1 (configuration not stated) [CAS_386750-22-7]
Ki [5]: 2750 nM and 3150 nM
